For test [1], the target named is D2R long isoform (PathHunter) (Homo sapiens, UniProt P14416). As to the kind of experiment: PathHunter beta-arrestin recruitment, agonist mode. Conditions: read-out: β-arrestin recruitment assay / EC50 (μM ± S.E.M.); CHO-K1, 90 min, 37°C.
Another test concerns the target human D2R long isoform (Homo sapiens, UniProt P14416). As to the kind of experiment: HitHunter cAMP assay, inhibition of forskolin-stimulated cAMP, agonist mode. The settings on record: read-out: cAMP inhibition assay / EC50 (μM ± S.E.M.); CHO-K1, forskolin, 60 min, 37°C.

Sequences of proteins named here, by UniProt entry; tags and fusion partners are left off. A change or cut given only in a name is not applied to a line headed by its entry.
UniProt P14416, whole entry: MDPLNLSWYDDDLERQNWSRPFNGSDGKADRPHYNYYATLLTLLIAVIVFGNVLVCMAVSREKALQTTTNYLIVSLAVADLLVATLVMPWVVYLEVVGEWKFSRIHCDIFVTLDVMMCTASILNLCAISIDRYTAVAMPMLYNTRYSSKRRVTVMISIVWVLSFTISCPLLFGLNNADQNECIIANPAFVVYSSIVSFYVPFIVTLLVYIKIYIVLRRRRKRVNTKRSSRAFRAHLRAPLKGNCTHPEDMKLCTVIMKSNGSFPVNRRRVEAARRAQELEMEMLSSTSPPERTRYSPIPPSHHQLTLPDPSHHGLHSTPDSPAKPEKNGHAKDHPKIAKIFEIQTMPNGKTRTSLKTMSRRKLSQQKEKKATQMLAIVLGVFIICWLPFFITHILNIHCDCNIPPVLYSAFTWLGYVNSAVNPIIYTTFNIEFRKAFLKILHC

1 compound from PMC5826336 (Frontiers in Synaptic Neuroscience, 2018) can be followed below.

Consider `Cc1c(CN2CCN(c3ncccn3)CC2)ccc2cccnc12`, for which the EC50 in test [1] was 7.6 µM; on human D2R long isoform, 0.8 µM.
